In PubChem BioAssay AID2676 (National Center for Advancing Translational Sciences (NCATS), 2010) one finds activation data, which are given here for 58 compounds.

The chains behind the UniProt entries cited, without tags or fusion partners.
UniProt Q9HBX9, whole entry: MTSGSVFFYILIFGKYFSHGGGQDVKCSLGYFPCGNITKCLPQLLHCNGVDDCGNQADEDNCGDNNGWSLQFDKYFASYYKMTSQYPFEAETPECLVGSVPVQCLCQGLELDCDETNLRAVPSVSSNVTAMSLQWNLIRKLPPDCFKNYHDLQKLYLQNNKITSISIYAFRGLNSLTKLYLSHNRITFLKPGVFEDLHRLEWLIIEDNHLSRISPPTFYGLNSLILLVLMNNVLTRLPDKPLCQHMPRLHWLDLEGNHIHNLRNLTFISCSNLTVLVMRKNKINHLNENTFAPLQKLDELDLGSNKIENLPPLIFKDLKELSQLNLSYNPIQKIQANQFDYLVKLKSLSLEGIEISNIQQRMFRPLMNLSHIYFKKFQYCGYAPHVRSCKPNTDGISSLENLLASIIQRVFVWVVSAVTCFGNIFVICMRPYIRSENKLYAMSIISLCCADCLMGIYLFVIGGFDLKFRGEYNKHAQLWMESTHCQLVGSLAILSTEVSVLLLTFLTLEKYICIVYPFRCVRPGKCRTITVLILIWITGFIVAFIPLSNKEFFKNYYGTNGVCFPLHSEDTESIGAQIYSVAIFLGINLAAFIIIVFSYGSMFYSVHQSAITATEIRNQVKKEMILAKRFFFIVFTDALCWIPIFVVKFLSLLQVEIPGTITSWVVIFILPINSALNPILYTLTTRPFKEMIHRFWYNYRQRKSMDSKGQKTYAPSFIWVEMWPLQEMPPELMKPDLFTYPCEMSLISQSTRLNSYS

Each structure is given as a SMILES string. This is a selection; strong and weak results do not stand in their true shares. Active and inactive are the calls of the source. The call rests on the fitted dose curve; in most records, active means well fitted activation curve with a large enough effect; inconclusive means small, poorly fitted or top-dose-only effect; inactive means flat fitted curve, though single readings scatter.
On the % scale 0 is the no-effect control and ±100 the full control effect.

For the assay, the target named is Relaxin receptor 1 (Homo sapiens) (UniProt Q9HBX9). As to the kind of experiment: qHTS Assay for Agonists of the Relaxin Receptor RXFP1. Further: nearly all actives have a fitted effect of over 60% in size. The note with it: HEK293T-RXFP1 cAMP TR-FRET, 30 min, percent of porcine relaxin response, buffer zero; at 57.5 µM (top of the series). From the text:
NIH Chemical Genomics Center [NCGC] NIH Molecular Libraries Probe Production Centers Network [MLPCN] MLPCN Grant: R03 MH085705-01A1 Assay Submitter (PI): Alexander Agoulnik NCGC Assay Overview: The relaxin hormone is involved in the variety of biological functions in normal tissues and diseases. The role of relaxin is well-established in female reproduction and parturition, mammary gland and endometrial development, maintenance of myometrial quiescence during pregnancy. Relaxin signaling through its G protein-coupled receptor (GPCR) RXFP1 results in ECM remodeling through regulation of collagen deposition, cell invasiveness, proliferation and overall tissue homeostasis. […] Recombinant human relaxin (rhRlx) is currently being tested in clinical trials as a protective agent in congestive heart failure, in treating severe preeclampsia, and as an anti-fibrotic agent in systemic sclerosis. Upon relaxin binding RXFP1 activation leads to the activation of adenylate cyclase (AC) via Gs. cAMP will activate PKA, which phosphorylates many signaling proteins. Thus, detection of cAMP increase is an easy and reliable indication of relaxin receptor activation. To screen for agonists of the relaxin receptor, a HEK293T cell line stably transfected with RXFP1 was used. RXFP1 activation was assayed by changes in cAMP levels as detected with a time-resolved fluorescence energy transfer (TR-FRET) cAMP detection kit.
NCGC Assay Protocol Summary: This is a cell-based assay for cAMP second messenger response to screen for agonists of the RXFP1 receptor. The assay was conducted in the presence of a PDE4 inhibitor (Ro 20174). The cells were lysed and the cAMP levels were measured with a TR-FRET cAMP kit. Presence of cAMP in the cell lysate disrupts binding between the cryptate-labeled anti-cAMP and d2-labeled cAMP pair, leading to a decrease in the TR-FRET signal. Data were normalized to the controls for basal activity (buffer only) and 100% activity (29 nM porcine relaxin). The EC50 values were determined from concentration-response data modeled with the standard Hill equation 1536-well assay protocol for the HEK293 RXFP1 cAMP assay: (1) Add 3 ul HEK293 RXFP1 cell culture. 2000 cells/well in DMEM/F12, 10% FBS, 1x Pen/Strep (dispensed offline with MultiDrop Combi). (2) Incubate 16-24 hr at 37C, 5% CO2. (3) Add 1 ul 400uM Ro20174 in DPBS, 0.05% BSA, 0.005% Tween 20. (3) Add 23 nl compounds in DMSO solution. Final concentration was 0.5 - 58 uM. (4) Incubate 30 min at 37C, 5% CO2. (5) Add 1 ul cAMP-d2 in lysis buffer (HTRF cAMP HiRange kit, CisBio). (6) Add 1 ul anti-cAMP antibody-cryptate in lysis buffer (HTRF cAMP HiRange kit, CisBio). (7) Incubate 30 min at room temperature. (6) Detect the assay plate in a ViewLux plate reader (PerkinElmer) with Ex=320 nm, Em1=615 nm and Em2=665 nm. Keywords: relaxin, RXFP1, RXFP2, G-protein coupled receptor, cAMP, agonist, high throughput screening, MLSMR, MLSCN, NIH Roadmap, qHTS and NCGC
A general note: qHTS replaces the single test concentration by a dilution series.
Regarding `CCc1ccc(OP(C)(=O)O)cc1`, the activation was inactive: 3.55%.

With `CP(=O)(Nc1ccccn1)Oc1ccccc1` (stereo not drawn), the activation was inactive: -0.512%.

With `COc1ccccc1OP(C)(=O)Nc1ccc(C)cc1C` (stereo not drawn), the activation was inactive: 0.732%.

For `O=[N+]([O-])c1cc([N+](=O)[O-])c(Nc2ccccn2)c([N+](=O)[O-])c1`, the activation was inactive: 5.22%.

On to `Cc1c(NP(C)(=O)Oc2ccc(C(C)C)cc2)c(=O)n(-c2ccccc2)n1C` (stereo not drawn), for which the activation is inactive: 0.477%.

For the compound `CN(C)CCOC(=O)C(O)(c1ccccc1)C1CCCC1` (stereo not drawn), the activation is inactive: -1.04%.

As to `COc1ccc(OP(C)(=O)Nc2ccccn2)cc1` (stereo not drawn), the activation was inactive: 1.96%.

On to `COc1ccccc1OP(C)(=O)Nc1ccc(Br)cc1` (stereo not drawn), for which the activation was inactive: 0%.

Turning to `CP(=O)(OCCOc1ccccc1)OCCOc1ccccc1`, the activation was inactive: -2.14%.

Take `CP(=O)(Nc1ccc(Cl)cc1Cl)Oc1ccccc1` (stereo not drawn): the activation was inactive: 2.85%.

As to `Cc1nc2ccc3ccccc3c2o1.O=[N+]([O-])c1cc([N+](=O)[O-])c(O)c([N+](=O)[O-])c1`, the activation was inactive: 0.15%.

Regarding `COc1ccc(OP(C)(=O)Nc2ccccc2Br)cc1` (stereo not drawn), the activation was inactive: 3.39%.

In the case of `COc1ccccc1OP(C)(=O)Nc1ccc(C)c(C)c1` (stereo not drawn), the activation is inactive: -0.464%.

Regarding `Cc1cc(C)cc(OP(C)(=O)Nc2cccc(C(F)(F)F)c2)c1` (stereo not drawn), the activation is inactive: -0.688%.

As to `CP(=O)(OC12CC3CC(CC(C3)C1)C2)OC12CC3CC(CC(C3)C1)C2`, the activation is inactive: -0.582%.

Regarding `CCOC(=O)c1ccc(NP(C)(=O)Oc2ccc(Cl)cc2)cc1` (stereo not drawn), the activation was inactive: -0.181%.

Take `CN(C)C(=O)c1c([N+](=O)[O-])cc([N+](=O)[O-])cc1[N+](=O)[O-]`: the activation is inactive: -0.773%.

On to `CP(=O)(Nc1ccc(Cl)cc1)Oc1ccc(F)cc1` (stereo not drawn), for which the activation is inactive: 0.678%.

For the compound `CC(C)(C)c1ccc(OP(C)(=O)O)cc1`, the activation was inactive: -0.918%.

Turning to `COc1ccccc1OP(C)(=O)Nc1ccccc1Br` (stereo not drawn), the activation was inactive: 4%.

For `CP(=O)(Oc1ccccc1)N1CCOC1=O` (stereo not drawn), the activation was inactive: 2.63%.

With `CCc1ccc(OP(C)(=O)Nc2cccnc2)cc1` (stereo not drawn), the activation was inactive: -0.569%.

`COc1ccccc1OP(C)(=O)Nc1c(C)n(C)n(-c2ccccc2)c1=O` (stereo not drawn): the activation was inactive: 1.18%.

`O=C(OCCCN1CCCC1)C(O)(c1ccccc1)C1CCCCC1` (stereo not drawn): the activation is inactive: -3.39%.

With `CCN(CC)CC(O)COC(=O)C(O)(c1ccccc1)C1CCCCC1` (stereo not drawn), the activation is inactive: -0.325%.

For the compound `COc1ccc(OP(C)(=O)Nc2ccc(Br)cc2)cc1` (stereo not drawn), the activation was inactive: 4.27%.

`Cc1ccccc1NP(C)(=O)Nc1ccccc1C`: the activation is inactive: 2.23%.

`CP(=O)(Nc1ccc2c(c1)OCCO2)Oc1ccccc1` (stereo not drawn): the activation is inactive: -1.8%.

With `CCOP(C)(=S)SCC(=O)NC(C)(CC)C(=O)O` (stereo not drawn), the activation was inactive: 0.353%.

Regarding `CP(=O)(Nc1ccc(SC(F)(F)F)cc1)Oc1ccc(F)cc1` (stereo not drawn), the activation was inactive: 0.607%.

With `Cc1cc(-c2cccc3ccccc23)c(C)cn1.O=[N+]([O-])c1cc([N+](=O)[O-])c(O)c([N+](=O)[O-])c1`, the activation was inactive: -2.2%.

`O=[N+]([O-])c1ccc(OP2(=O)COCCO2)cc1` (stereo not drawn): the activation was inactive: -0.84%.

As to `COc1ccc(NP(C)(=O)Oc2ccccc2OC)cc1` (stereo not drawn), the activation was inactive: 0.217%.

In the case of `CN(C)CCOC(=O)C(O)(c1ccccc1)C1CCCCC1` (stereo not drawn), the activation is inactive: -0.237%.

Consider `COc1ccc(OP(C)(=O)Nc2cccc(Br)c2)cc1` (stereo not drawn), for which the activation is inactive: -0.155%.

On to `CCCCCOc1ccc(NP(C)(=O)Oc2ccc(Cl)cc2Cl)cc1` (stereo not drawn), for which the activation is inactive: -8.1%.

Take `CP(=O)(Nc1ccccc1)Oc1ccc(F)cc1` (stereo not drawn): the activation is inactive: 2.15%.

With `CCN(CC)CCCOC(=O)C(O)(c1ccccc1)C1CCCCC1` (stereo not drawn), the activation is inactive: 0.049%.

As to `COc1ccc(OP(C)(=O)Nc2ccc(SC(F)(F)F)cc2)cc1` (stereo not drawn), the activation was inactive: -1.16%.

On to `CCOC(=O)c1ccc(NP(C)(=O)Oc2ccc(F)cc2)cc1` (stereo not drawn), for which the activation is inactive: -0.0452%.

As to `O=C(OCCN1CCN(CCOCc2ccccc2)CC1)C(O)(c1ccccc1)c1ccccc1`, the activation is inactive: 2.53%.

Consider `CC(C)c1ccc(OP(C)(=O)Nc2ccc(SC(F)(F)F)cc2)cc1` (stereo not drawn), for which the activation was inactive: -0.345%.

With `CP(=O)(Nc1ccccc1F)Oc1ccccc1` (stereo not drawn), the activation is inactive: 1.24%.

`CP(=O)(Nc1cccc(Br)c1)Oc1ccccc1` (stereo not drawn): the activation was inactive: -0.0777%.

With `Cc1cc(C)cc(OP(C)(=O)Nc2ccccn2)c1` (stereo not drawn), the activation is inactive: 0.383%.

For `Cc1ccc(C)c(NP(C)(=O)Oc2ccccc2)c1` (stereo not drawn), the activation was inactive: 2.96%.

In the case of `Cc1cc(C)cc(OP(C)(=O)Nc2ccc(C)cc2C)c1` (stereo not drawn), the activation was inactive: 1.39%.

As for `CCOC(=O)c1ccc(NP(C)(=O)Oc2cc(C)cc(C)c2)cc1` (stereo not drawn), the activation was inactive: -0.35%.

With `COc1ccccc1OP(C)(=O)Nc1cccc(Br)c1` (stereo not drawn), the activation was inactive: 1.05%.

Regarding `CC1=NCCc2c1[nH]c1ccccc21.O=[N+]([O-])c1cc([N+](=O)[O-])c(O)c([N+](=O)[O-])c1`, the activation is inactive: 2.46%.

`CP(=O)(Nc1ccc(SC(F)(F)F)cc1)Oc1ccccc1` (stereo not drawn): the activation is inactive: -1.24%.

With `CCCOc1ccc(NP(C)(=O)Oc2ccc(Cl)cc2)cc1` (stereo not drawn), the activation was inactive: 0.971%.

As to `CN1CCCCC1COC(=O)C1(O)c2ccccc2CCc2ccccc21` (stereo not drawn), the activation was inactive: 0.778%.

Consider `COc1ccccc1OP(C)(=O)Nc1c(C)cccc1C` (stereo not drawn), for which the activation was inactive: -0.0316%.

For the compound `O=[N+]([O-])c1cc([N+](=O)[O-])c(Nc2nnnn2CCO)c([N+](=O)[O-])c1`, the activation is inactive: 0.309%.

As for `CC1=C2N=C(C=C3N=C(C(C)=C4[N-][C@@](C)([C@@H]5N=C1[C@](C)(CCC(=O)NC[C@@H](C)OP(=O)([O-])O[C@H]1[C@@H](O)[C@@H](n6cnc7cc(C)c(C)cc76)O[C@@H]1CO)[C@H]5CC(N)=O)[C@@](C)(CC(N)=O)[C@@H]4CCC(N)=O)[C@@](C)(CC(N)=O)[C@@H]3CCC(N)=O)C(C)(C)[C@@H]2CCC(N)=O.[C-]#N.[Co+3]`, the activation is inactive: -0.51%.

`Cc1nc2ccc3ccccc3c2s1.O=[N+]([O-])c1cc([N+](=O)[O-])c(O)c([N+](=O)[O-])c1`: the activation was inactive: -0.642%.

For the compound `O=[N+]([O-])c1cc([N+](=O)[O-])c(-n2nnc3ccccc32)c([N+](=O)[O-])c1`, the activation is inactive: 4.61%.
